This is one part of the list.
Assays:
Experiment in all cases: FOREST: bead pull-down of RNA structure library v1, barcode microarray; U1A/LIN28A: 20 mM HEPES pH 7.5, 80 mM KCl, 20 mM NaCl, 10% glycerol, 2 mM DTT, 0.1 ug/uL BSA, 4 C; BG4/CIRBP/DHX36: 10 mM Tris-HCl pH 7.5, 100 mM KCl (or LiCl),; high values mean tight binding
LIN28A = biological target: T1, LIN28A (human?, UniProt Q9H9Z2 1-209)
T1 sequence: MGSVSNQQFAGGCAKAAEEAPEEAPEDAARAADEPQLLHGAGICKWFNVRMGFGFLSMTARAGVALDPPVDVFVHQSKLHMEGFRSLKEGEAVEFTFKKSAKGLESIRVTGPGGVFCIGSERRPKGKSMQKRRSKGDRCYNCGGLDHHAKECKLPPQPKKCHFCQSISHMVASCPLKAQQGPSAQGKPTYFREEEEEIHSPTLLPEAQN

CIRBP = biological target: T2, CIRBP (Homo sapiens, UniProt Q14011 1-172)
T2 sequence: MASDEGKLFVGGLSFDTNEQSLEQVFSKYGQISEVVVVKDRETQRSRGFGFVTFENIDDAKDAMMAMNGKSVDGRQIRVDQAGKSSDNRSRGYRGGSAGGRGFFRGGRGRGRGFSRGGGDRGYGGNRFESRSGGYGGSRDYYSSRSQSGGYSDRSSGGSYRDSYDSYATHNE

DHX36 = biological target: T3, DHX36 (Homo sapiens, UniProt Q9H2U1 1-1008)
T3 sequence: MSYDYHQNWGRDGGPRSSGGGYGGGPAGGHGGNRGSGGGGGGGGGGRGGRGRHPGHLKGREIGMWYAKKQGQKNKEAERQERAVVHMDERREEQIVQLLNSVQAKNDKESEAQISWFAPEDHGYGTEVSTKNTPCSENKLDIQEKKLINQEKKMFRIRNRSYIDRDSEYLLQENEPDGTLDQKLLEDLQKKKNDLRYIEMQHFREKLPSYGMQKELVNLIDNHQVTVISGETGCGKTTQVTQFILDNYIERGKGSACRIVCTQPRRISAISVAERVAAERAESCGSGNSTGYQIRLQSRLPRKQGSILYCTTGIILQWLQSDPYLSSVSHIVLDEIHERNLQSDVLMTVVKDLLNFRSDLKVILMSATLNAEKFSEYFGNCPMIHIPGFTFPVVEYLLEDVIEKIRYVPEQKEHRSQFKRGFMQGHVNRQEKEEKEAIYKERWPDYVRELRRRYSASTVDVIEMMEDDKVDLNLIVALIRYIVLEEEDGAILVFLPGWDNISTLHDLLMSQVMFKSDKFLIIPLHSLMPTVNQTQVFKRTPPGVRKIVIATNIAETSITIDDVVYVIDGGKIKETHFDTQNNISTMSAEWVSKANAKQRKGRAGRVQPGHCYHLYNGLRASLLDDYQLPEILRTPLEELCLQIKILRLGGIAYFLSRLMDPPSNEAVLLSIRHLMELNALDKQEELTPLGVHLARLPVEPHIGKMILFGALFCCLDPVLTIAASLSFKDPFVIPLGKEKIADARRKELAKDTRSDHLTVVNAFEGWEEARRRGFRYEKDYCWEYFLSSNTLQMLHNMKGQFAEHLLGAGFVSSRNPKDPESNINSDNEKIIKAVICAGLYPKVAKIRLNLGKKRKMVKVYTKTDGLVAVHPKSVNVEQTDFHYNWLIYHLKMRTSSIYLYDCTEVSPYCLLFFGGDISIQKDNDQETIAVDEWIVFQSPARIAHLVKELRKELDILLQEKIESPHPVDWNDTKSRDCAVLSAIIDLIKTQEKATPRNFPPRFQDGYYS

B1: hsa-mir-4261 (structured_RNA)
RNA: GGGAAAUUUUAGAGAACCGCGCGGAGGUGGUGUACGAAGUUUCAGCUCCUGAGACAGGAGCUGAAGCUUCGUGCAC
- binding signal (LIN28A): -1.83 z-score
- binding signal (CIRBP): -0.396 z-score
- binding signal (DHX36): -0.498 z-score

B2: hsa-mir-6756 (structured_RNA)
RNA: GGGAAUGUCAACCGGGGCAAAUGAUGACGGUGUACGAAGUUUCAGCGGGGCUGAGGCUGAGUCUUCCUCCCGCUGAAGCUUCGUGCAC
- binding signal (LIN28A): -1.76 z-score
- binding signal (CIRBP): -1.31 z-score
- binding signal (DHX36): -1.35 z-score

B3: hsa-mir-3180-4 (structured_RNA)
RNA: GGGACAGGAUACCAAUGUUUACAGAUCGGGUGUACGAAGUUUCAGCGGAGGCCCCGCUCUGCUGCCGACCCUGUGGAGCGGAGGGUGAAGCCUCCGCUGAAGCUUCGUGCAC
- binding signal (LIN28A): -1.81 z-score
- binding signal (CIRBP): -1.67 z-score
- binding signal (DHX36): -0.768 z-score

B4: hsa-mir-4730 (structured_RNA)
RNA: GGGAACUCAAAUGCACCCCGUCACAGAGGGUGUACGAAGUUUCAGCGCCAGAUGCUGAGCGAUGGCGCUGAAGCUUCGUGCAC
- binding signal (LIN28A): -1.81 z-score
- binding signal (CIRBP): -0.703 z-score
- binding signal (DHX36): -0.826 z-score

B5: hsa-mir-4268 (structured_RNA)
RNA: GGGCUCGUAGGAGGCCGGUCACCAUAUAGGUGUACGAAGUUUCAGCUGCCCUAGCGGCUGCUGAAGCUUCGUGCAC
- binding signal (LIN28A): -1.64 z-score
- binding signal (CIRBP): -0.624 z-score
- binding signal (DHX36): 0.063 z-score

B6: hsa-mir-6817 (structured_RNA)
RNA: GGGAAAACCAGUGACGGUUCACCAGCAAGGUGUACGAAGUUUCAGCGUGGAACUGACCUGCCCCCUUUCUCGCUGAAGCUUCGUGCAC
- binding signal (LIN28A): -1.62 z-score
- binding signal (CIRBP): -1.11 z-score
- binding signal (DHX36): -1.23 z-score

B7: hsa-mir-4254 (structured_RNA)
RNA: GGGAGAUCCAGGCCCGCUCAUUUGUGUCGGUGUACGAAGUUUCAGCCUGCAGUGAGUAGGUCUGCCUGCUGAAGCUUCGUGCAC
- binding signal (LIN28A): -1.62 z-score
- binding signal (CIRBP): -0.679 z-score
- binding signal (DHX36): -0.841 z-score

B8: hsa-mir-5000 (structured_RNA)
RNA: GGGAACCUCCUUAAGGGGCCACACCAAGGGUGUACGAAGUUUCAGCCUGAGUAACUUGUGCUUAUAACUCAGGCUGAAGCUUCGUGCAC
- binding signal (LIN28A): -1.61 z-score
- binding signal (CIRBP): -0.904 z-score
- binding signal (DHX36): -1.14 z-score

B9: hsa-mir-99b (structured_RNA)
RNA: GGGACCACAUAGAACCAAAUCCACUCGCGGUGUACGAAGUUUCAGCCUUGCGGGGCCUUCGCCGCACACAAGGCUGAAGCUUCGUGCAC
- binding signal (LIN28A): -1.73 z-score
- binding signal (CIRBP): -0.7 z-score
- binding signal (DHX36): 0.578 z-score

B10: hsa-mir-124-3 (structured_RNA)
RNA: GGGACAAUCAUCCUUCUAGGACGAGACAGGUGUACGAAGUUUCAGCCUUGAUUUAAUGUCUAUACAAUUAAGGCUGAAGCUUCGUGCAC
- binding signal (LIN28A): -1.74 z-score
- binding signal (CIRBP): -0.411 z-score
- binding signal (DHX36): -0.704 z-score

B11: NEAT1_ParasoR_ID9 (structured_RNA)
RNA: GGGAAAAUGGGUCGCCCAUUCUGCCAACGGUGUACGAAGUUUCAGCUCUCACUUAUAAGUGAGAGCUGAAGCUUCGUGCAC
- binding signal (LIN28A): -1.69 z-score
- binding signal (CIRBP): -0.561 z-score
- binding signal (DHX36): -1.26 z-score

B12: hsa-mir-1260b (structured_RNA)
RNA: GGGAACAUCGCGGGUCCCUCAAUCGAACGGUGUACGAAGUUUCAGCCCAUUAUUGCUACUGUUCAGCAGGUGCUGCUGGUGGUGAUGGGCUGAAGCUUCGUGCAC
- binding signal (LIN28A): -1.78 z-score
- binding signal (CIRBP): 0.635 z-score
- binding signal (DHX36): -1.08 z-score

B13: hsa-mir-4320 (structured_RNA)
RNA: GGGAUAAGGCCCUACGCACAUAAGUGCAGGUGUACGAAGUUUCAGCUUUCAGAUAACUCGGGAGCUGAAGCUUCGUGCAC
- binding signal (LIN28A): -1.81 z-score
- binding signal (CIRBP): -1.41 z-score
- binding signal (DHX36): -1.25 z-score

B14: hsa-mir-548y (structured_RNA)
RNA: GGGAGAUAAAGGCCCGUGGGAAACUGACGGUGUACGAAGUUUCAGCUGCCAUUACUCUCAGUGGCAGCUGAAGCUUCGUGCAC
- binding signal (LIN28A): -1.73 z-score
- binding signal (CIRBP): -0.397 z-score
- binding signal (DHX36): -1.07 z-score

B15: NEAT1_ParasoR_ID21 (structured_RNA)
RNA: GGGACCAACAACUCUAAUCGUCGCUCACGGUGUACGAAGUUUCAGCAGGUAUAAUUUUUUAAAUUGCUUGCUGAAGCUUCGUGCAC
- binding signal (LIN28A): -1.8 z-score
- binding signal (CIRBP): -0.482 z-score
- binding signal (DHX36): -0.766 z-score

B16: hsa-mir-2276 (structured_RNA)
RNA: GGGACUUAUUAGUCAAGAACCCAACCCCGGUGUACGAAGUUUCAGCCAGACGGCUUUCUCUCCGAAUGUCUGGCUGAAGCUUCGUGCAC
- binding signal (LIN28A): -1.68 z-score
- binding signal (CIRBP): -0.299 z-score
- binding signal (DHX36): -1.51 z-score

B17: hsa-mir-548ag-1 (structured_RNA)
RNA: GGGAGCAUUACUAUCGUGUCCCGGAGAAGGUGUACGAAGUUUCAGCCUGCUUUUAAAGGUAAUGGCAAGCUGAAGCUUCGUGCAC
- binding signal (LIN28A): -1.69 z-score
- binding signal (CIRBP): -1.35 z-score
- binding signal (DHX36): -1.22 z-score

B18: hsa-mir-4801 (structured_RNA)
RNA: GGGAACUUAGCGGGUUCAUGUCUCGAAUGGUGUACGAAGUUUCAGCUGUAAAAUGUAAUAACAUUUCUUAUGUUUAAAACACUUUACAGCUGAAGCUUCGUGCAC
- binding signal (LIN28A): -1.68 z-score
- binding signal (CIRBP): -2.04 z-score
- binding signal (DHX36): -0.379 z-score

B19: hsa-mir-3935 (structured_RNA)
RNA: GGGACAUGAACCCUGAAAGUCUGUUUCGGGUGUACGAAGUUUCAGCUAUGAAGGUAAGCAUUUUUGUAGCUGAAGCUUCGUGCAC
- binding signal (LIN28A): -1.68 z-score
- binding signal (CIRBP): -0.904 z-score
- binding signal (DHX36): -1.09 z-score

B20: hsa-mir-657 (structured_RNA)
RNA: GGGAAGUCUGAAAGGACGCAGCACCAGUGGUGUACGAAGUUUCAGCGUCCGGGUGGGUUCCGGCAGCUGAAGCUUCGUGCAC
- binding signal (LIN28A): -1.75 z-score
- binding signal (CIRBP): -0.737 z-score
- binding signal (DHX36): -1.4 z-score

B21: hsa-mir-500a (structured_RNA)
RNA: GGGAAUUGGGGACCCGUGUCGAACCAAAGGUGUACGAAGUUUCAGCGAGAGUGCUGUCUGAAUGCAAUGCGCUGAAGCUUCGUGCAC
- binding signal (LIN28A): -1.75 z-score
- binding signal (CIRBP): -1.55 z-score
- binding signal (DHX36): -0.0743 z-score

B22: hsa-mir-4490 (structured_RNA)
RNA: GGGAUUAGUAGGCCACGCCUUGUGAUGGGGUGUACGAAGUUUCAGCCAAAGACCAGAACUUAAUGGUCUCUGGCUGAAGCUUCGUGCAC
- binding signal (LIN28A): -1.82 z-score
- binding signal (CIRBP): -1.58 z-score
- binding signal (DHX36): -0.936 z-score

B23: hsa-mir-4773-1 (structured_RNA)
RNA: GGGACCACUGAGAGGUGCCCUUCGUAUAGGUGUACGAAGUUUCAGCUCUGCUUUAUUUCAUCAAAGCAGAGCUGAAGCUUCGUGCAC
- binding signal (LIN28A): -1.78 z-score
- binding signal (CIRBP): -1.69 z-score
- binding signal (DHX36): -1.91 z-score

B24: hsa-mir-4659a (structured_RNA)
RNA: GGGAAUUCUAAGGCGGGUCAGCUUGCAAGGUGUACGAAGUUUCAGCGAAAACUUUGGAGAAAAAUUUUCGCUGAAGCUUCGUGCAC
- binding signal (LIN28A): -1.79 z-score
- binding signal (CIRBP): -0.683 z-score
- binding signal (DHX36): -0.758 z-score

B25: hsa-mir-4679-2 (structured_RNA)
RNA: GGGAGCUCACAGCGUCCAAUCGGUCAACGGUGUACGAAGUUUCAGCUGCUUUUUGUUUCUAACAAAGCAGCUGAAGCUUCGUGCAC
- binding signal (LIN28A): -1.83 z-score
- binding signal (CIRBP): -0.261 z-score
- binding signal (DHX36): -0.661 z-score

B26: hsa-mir-3910-2 (structured_RNA)
RNA: GGGACAUUUUGCGGGGUCCCAGUAUUAGGGUGUACGAAGUUUCAGCCUUUUAUGUGCCUUGAUAUAAAAGGCUGAAGCUUCGUGCAC
- binding signal (LIN28A): -1.6 z-score
- binding signal (CIRBP): -0.757 z-score
- binding signal (DHX36): -0.785 z-score

Source: article PMC7723054
